For assay [1], the target named is human α2δ-1 subunit of Cav2.2 calcium channel (Homo sapiens, UniProt P54289). Description: Binding assay to human α2δ-1 subunit of Cav2.2 calcium channel ([3H]-Gabapentin displacement). The settings on record: read-out: Binding α2δ-1; human α2δ-1 enriched membranes, 15 nM [3H]-Gabapentin, 27 °C, 60 min.
Assay [2] addresses human µ-opioid receptor (Homo sapiens, UniProt P35372). Description: Binding assay to human µ-opioid receptor ([3H]-DAMGO displacement). The settings on record: read-out: Binding µ; transfected CHO-K1 cell membranes, [3H]-DAMGO 1 nM, 27 °C, 60 min.

Protein sequences, listed by entry. Tags and fused reporters are not part of them. Lines headed by an entry give the natural chain unless they say otherwise; changes in a name come on top.
UniProt P54289: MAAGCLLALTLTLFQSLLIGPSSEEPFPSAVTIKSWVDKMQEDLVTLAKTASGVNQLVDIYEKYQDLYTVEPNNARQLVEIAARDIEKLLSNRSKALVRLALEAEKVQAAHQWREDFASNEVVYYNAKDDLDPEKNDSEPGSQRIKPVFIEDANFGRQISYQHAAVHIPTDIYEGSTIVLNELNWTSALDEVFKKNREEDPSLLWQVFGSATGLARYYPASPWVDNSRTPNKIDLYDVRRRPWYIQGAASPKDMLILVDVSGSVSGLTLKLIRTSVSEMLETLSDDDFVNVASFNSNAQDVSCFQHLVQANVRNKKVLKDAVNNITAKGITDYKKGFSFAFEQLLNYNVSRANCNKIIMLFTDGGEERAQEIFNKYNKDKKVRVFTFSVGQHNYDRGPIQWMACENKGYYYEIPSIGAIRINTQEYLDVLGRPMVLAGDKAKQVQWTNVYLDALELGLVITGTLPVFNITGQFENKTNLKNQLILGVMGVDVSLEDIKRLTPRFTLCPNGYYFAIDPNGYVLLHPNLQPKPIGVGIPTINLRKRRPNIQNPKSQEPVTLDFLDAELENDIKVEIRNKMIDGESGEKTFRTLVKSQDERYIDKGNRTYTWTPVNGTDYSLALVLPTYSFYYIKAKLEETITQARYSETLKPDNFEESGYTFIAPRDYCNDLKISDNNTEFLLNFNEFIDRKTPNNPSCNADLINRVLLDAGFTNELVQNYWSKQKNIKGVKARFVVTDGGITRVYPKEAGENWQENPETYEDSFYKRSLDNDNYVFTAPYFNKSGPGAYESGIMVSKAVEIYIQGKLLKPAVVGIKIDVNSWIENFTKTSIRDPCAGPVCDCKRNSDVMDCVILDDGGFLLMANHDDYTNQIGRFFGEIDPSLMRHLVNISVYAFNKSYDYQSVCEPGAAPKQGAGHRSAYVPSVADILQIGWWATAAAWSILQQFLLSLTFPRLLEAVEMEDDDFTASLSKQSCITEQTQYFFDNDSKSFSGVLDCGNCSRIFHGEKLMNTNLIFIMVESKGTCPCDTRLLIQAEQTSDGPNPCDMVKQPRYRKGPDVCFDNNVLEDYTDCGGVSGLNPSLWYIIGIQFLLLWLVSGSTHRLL
UniProt P35372: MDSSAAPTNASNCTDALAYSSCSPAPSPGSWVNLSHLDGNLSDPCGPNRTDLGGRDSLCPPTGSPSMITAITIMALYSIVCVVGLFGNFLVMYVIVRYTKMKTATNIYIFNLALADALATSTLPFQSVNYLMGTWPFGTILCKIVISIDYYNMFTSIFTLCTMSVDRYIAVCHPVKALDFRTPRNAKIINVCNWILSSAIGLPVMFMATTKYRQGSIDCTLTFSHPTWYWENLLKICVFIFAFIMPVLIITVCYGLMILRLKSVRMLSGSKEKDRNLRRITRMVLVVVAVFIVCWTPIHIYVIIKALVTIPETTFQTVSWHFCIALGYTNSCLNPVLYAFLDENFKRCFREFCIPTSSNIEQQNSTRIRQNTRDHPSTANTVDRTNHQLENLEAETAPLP

As to “(2S,3R)-2-(aminomethyl)-N-((1r,4S)-4-(dimethylamino)-4-phenylcyclohexyl)-N-methyl-3-phenylbutanamide”, the Ki in assay [1] was under 500 nM. Take “trans/trans-N-((1r,4S)-4-(dimethylamino)-4-phenylcyclohexyl)-N-methyl-2-(methylamino)-5-phenylcyclopentanecarboxamide”: the Ki in assay [2] is under 100 nM; in assay [1], over 5000 nM.
